The target in this experiment is NAMPT (Homo sapiens, UniProt P43490). As to the kind of experiment: Biochemical inhibition assay: NAMPT enzymatic reaction, NMN quantified by mass spectrometry. The note with it: read-out: Biochem IC50 uM.

Protein sequences, listed by entry. Tags and fused reporters are not part of them.
UniProt P43490, whole entry: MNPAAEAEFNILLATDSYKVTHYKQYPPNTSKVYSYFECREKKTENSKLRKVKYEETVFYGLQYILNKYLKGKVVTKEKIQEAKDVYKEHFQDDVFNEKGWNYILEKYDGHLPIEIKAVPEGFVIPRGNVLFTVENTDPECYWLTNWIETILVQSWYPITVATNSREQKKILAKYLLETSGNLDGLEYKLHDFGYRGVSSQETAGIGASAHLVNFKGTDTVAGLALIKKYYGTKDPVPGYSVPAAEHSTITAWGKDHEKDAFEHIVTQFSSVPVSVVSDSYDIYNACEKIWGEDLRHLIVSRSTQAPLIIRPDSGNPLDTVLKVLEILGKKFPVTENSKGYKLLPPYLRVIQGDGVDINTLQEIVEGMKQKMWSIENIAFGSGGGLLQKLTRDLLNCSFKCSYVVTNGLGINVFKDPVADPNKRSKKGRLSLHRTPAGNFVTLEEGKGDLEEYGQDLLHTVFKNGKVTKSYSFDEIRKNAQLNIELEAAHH

As a reminder, the IC50 is the point on the concentration scale where inhibition reaches its midpoint. For `O=C(NCc1ccc(S(=O)(=O)c2ccc(N3CCOCC3)nc2)cc1)c1cnc2[nH]ncc2c1`, the half-maximal inhibitory concentration (IC50) was determined as 0.0057 µM.
